Results taken from the supplement of paper PMC12458215.
± gives the uncertainty stated by the source.

System: HEK293T
Experiment: plasma membrane surface immunostaining intensity (anti-HA, deep receptor scanning) (arbitrary fluorescence units); higher = higher plasma membrane expression
Conditions: GPCR class: A

MDLHLFDYSEPGNFSDISWPCNSSDCIVVDTVMCPNMPNKSVLLYTLSFIYIFIFVIGMIANSVVVWVNIQAKTTGYDTHCYILNLAIADLWVVLTIPVWVVSLVQHNQWPMGELTCKVTHLIFSINLFGSIFFLTCMSVDRYLSITYFTNTPSSRKKMVRRVVCILVWLLAFCVSLPDTYYLKTVTSASNNETYCRSFYPEHSIKEWLIGMELVSVVLGFAVPFSIIAVFYFLLARAISASSDQEKHSSRKIIFSYVVVFLVCWLPYHVAVLLDIFSILHYIPFTCRLEHALFTALHVTQCLSLVHCCVNPVLYSFINRNYRYELMKAFIFKYSAKTGLTKLIDASRVSETEYSALEQSTK [ACKR3]
plasma membrane surface immunostaining intensity: 2200 ± 430

MWNSSDANFSCYHESVLGYRYVAVSWGVVVAVTGTVGNVLTLLALAIQPKLRTRFNLLIANLTLADLLYCTLLQPFSVDTYLHLHWRTGATFCRVFGLLLFASNSVSILTLCLIALGRYLLIAHPKLFPQVFSAKGIVLALVSTWVVGVASFAPLWPIYILVPVVCTCSFDRIRGRPYTTILMGIYFVLGLSSVGIFYCLIHRQVKRAAQALDQYKLRQASIHSNHVARTDEAMPGRFQELDSRLASGGPSEGISSEPVSAATTQTLEGDSSEVGDQINSKRAKQMAEKSPPEASAKAQPIKGARRAPDSSSEFGKVTRMCFAVFLCFALSYIPFLLLNILDARVQAPRVVHMLAANLTWLNGCINPVLYAAMNRQFRQAYGSILKRGPRSFHRLH [GPR84]
plasma membrane surface immunostaining intensity: 6389 ± 23
